How the values were obtained:
[1] = tested on: Ki67 (MK167); experiment: Ki67 expression in prostate tissue of BPH induced mouse model (immunostain); format: in vivo, C57BL/6 mice; details: PEP1 250 μg per 25 g mouse s.c. every day, 2 weeks
Description: (§1) The experiment used 6-8 weeks old male C57BL/6 (n=10/group) mice and the mice were raised in the SPF (specific pathogen free) area of experimental animal laboratory in Medical College of Seoul University. Testosterone enanthate (TE, purchased from EVER Pharma Hena GmbH, Germany) for injection 50 mg and estradiol valerate (purchased from EVER Pharma Hena GmbH, Germany) 0.5 mg are respectively mixed into 70 μl volume of micro-osmotic pump (Alzet pump, purchased from DURECT Corporation, USA), and the pump was transplanted in the back of mouse under anesthetic. The pump was designed to release the hormone in the concentration of 0.11 μl per an hour in 28 days (2 weeks) into the mouse by using osmosis phenomenon.
(§2) As test materials, testosterone and finasteride were used. […]
(§3) Inducing BPH increases PCNA (proliferating cell nuclear antigen, compulsory protein for replication) and Ki67 (MK167, compulsory protein for proliferation of cell) in prostate tissues. […] PCNA was measured by using 2D-gel electrophoresis with protein of the extracted from prostate tissue cells, and Ki67 was measured by immunostain method to detect expression level in tissue. […]

Chains of the proteins cited; added tags and fusions are not shown. Lines headed by an entry give the natural chain unless they say otherwise; changes in a name come on top.
UniProt P10275: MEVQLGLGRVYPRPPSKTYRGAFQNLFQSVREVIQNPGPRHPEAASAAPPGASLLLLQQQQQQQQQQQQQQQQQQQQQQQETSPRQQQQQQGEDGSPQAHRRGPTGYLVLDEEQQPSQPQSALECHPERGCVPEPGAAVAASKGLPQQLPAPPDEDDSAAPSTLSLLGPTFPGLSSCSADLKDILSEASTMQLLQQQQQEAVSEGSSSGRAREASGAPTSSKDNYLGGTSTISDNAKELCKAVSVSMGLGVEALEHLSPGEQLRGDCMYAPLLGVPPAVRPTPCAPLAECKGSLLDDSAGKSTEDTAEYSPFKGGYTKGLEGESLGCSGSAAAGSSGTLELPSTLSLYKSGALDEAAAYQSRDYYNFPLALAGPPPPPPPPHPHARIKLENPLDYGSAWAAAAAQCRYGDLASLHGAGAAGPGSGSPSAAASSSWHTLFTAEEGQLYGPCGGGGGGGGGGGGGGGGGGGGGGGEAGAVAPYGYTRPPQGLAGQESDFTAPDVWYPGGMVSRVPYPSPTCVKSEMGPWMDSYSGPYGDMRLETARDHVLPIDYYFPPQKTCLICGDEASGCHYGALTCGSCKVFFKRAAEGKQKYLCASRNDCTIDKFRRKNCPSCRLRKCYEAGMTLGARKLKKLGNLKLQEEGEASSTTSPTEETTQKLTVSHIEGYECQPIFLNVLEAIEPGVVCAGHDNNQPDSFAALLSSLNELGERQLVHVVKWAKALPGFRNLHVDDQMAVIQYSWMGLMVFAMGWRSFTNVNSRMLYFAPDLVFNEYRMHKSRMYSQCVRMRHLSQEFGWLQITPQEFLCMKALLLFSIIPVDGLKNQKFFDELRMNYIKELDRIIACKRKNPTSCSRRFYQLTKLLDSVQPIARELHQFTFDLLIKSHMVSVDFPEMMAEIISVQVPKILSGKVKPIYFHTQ

[2] = tested on: PCNA (proliferating cell nuclear antigen); experiment: PCNA expression in prostate tissue of BPH induced mouse model (2D-gel electrophoresis); format: in vivo, C57BL/6 mice; details: PEP1 250 μg per 25 g mouse s.c. every day, 2 weeks
Description: as §1, §2, §3

[3] = tested on: BPH induced mouse model (treated with testosterone and estradiol); experiment: Body, prostate and seminal vesicle weight in BPH induced mouse model (testosterone and estradiol); format: in vivo, C57BL/6 mice
Description: as §1
As test materials, testosterone and finasteride were used. For prepared animal models, per one subject (25 g mouse model) 250 μg of PEP1 according to example 1 and 2500 μg of finasteride (in DMSO or cyclodextrin, purchased from Sigma Aldrich, USA) were administered subcutaneously (injection) respectively every day. After 2 weeks from injecting test materials (4 weeks after transplanting the pump to animal model), the blood was collected from supraorbital vein and centrifuged in 14000 rpm, 4° C., 30 min to separate blood serum, and the prostate was extracted and froze in liquid nitrogen at −70° C. or fixed in a fixing fluid. The test groups for experiment are described in Table 5 below.
BPH can be detected by the changes of the weights of prostate and seminal vesicle. Based on this, for detecting the effect of PEP1 to the weights of prostate and seminal vesicle which directly show the BPH related symptoms, body weight, prostate weight and seminal vesicles weight were measured in BPH induced animal model. The results of the measurement are shown in Table 5 by group as a graph (see FIGS. 13, 14 and 15).

[4] = tested on: 5α-reductase; experiment: Expression of 5α-reductase in ventral prostate by RT-PCR, BPH induced animal model; format: in vivo, Sprague-Dawley male rats; details: 60 days, rat
From the text: As androgen, the most commonly used hormone in the body is testosterone. But the most powerful hormone of androgens related to development of prostate is 5α-dihydrotestosterone (DHT) which is made by combining testosterone and 5α-reductase. […] It is reported that DHT made by hyperprolactinemia make more gaining weight in lateral lobe than dorsal lobe or ventral lobe of prostate. Based on this fact, the experiment using PEP1 according to example 1 only or co-administration with other test material to BPH induced animal model was done as follows. […] Also before administrating the test materials, the body weights of every animal were measured and recorded.
Sulpiride as test material was purchased from Sigma Chemical Co. (St. Louis, Mo., USA) and used for the experiment. […] The dosage of the administration was calculated based on the concentration of 0.5 ml/kg with reflecting the body weight measured every day. […]
After administrating sulpiride with test materials for 60 days and collecting ventral prostate, the effect to the expression of 5α-reductase was measured by using RT-PCR. […] After then RNA was quantified by using spectrophotometer. […] For the control of quantification in electrophoresis, GAPDH whose expression level is not changed by other drugs was used. […]

[5] = target: T1, androgen receptor (Homo sapiens, UniProt P10275); experiment: Binding ability to androgen receptor, PEP1-FITC competitive test by flow-cytometry in RWPE-1
T1 construct: As the cell lines, WPMY-1 and RWPE-1 from animal models were used; endogenous in cells; host or cells: WPMY-1; RWPE-1
Description: (§4) DHT created by 5α-reductase promotes proliferation of prostate cell by binding to androgen receptor and causes BPH. Based on this, the experiment related to proliferation of prostate cell which administrates PEP1 according to example 1 to the body has been done. As the cell lines, WPMY-1 and RWPE-1 from animal models were used. WPMY-1 and RWPE-1 were separated into the group of anti-androgen receptor and the group of isotype control, incubated with each anti-bodies to do competitive test by putting PEP1-FITC (fluorescein isothiocyanate) in it, and measured by value of fluorescence for the result. The fluorescence value was measured by using flow-cytometry method.
(§5) For each of WPMY-1 and RWPE-1, the fluorescence values were measured in which a case reacted to the anti-androgen receptor isotype control antibody first (competed with antibody, peak of the farthest to the right), other case reacted to the anti-androgen receptor antibody (competed with antibody, peak of the middle), and another case not reacted to two antibodies neither bound to FITC (peak of the farthest to the left) (see FIG. 7 and FIG. 8). […] Therefore, for considering that PEP1 inhibits BPH induced by DHT which binds to anti-androgen receptor, PEP1 can affect BPH by binding to an anti-androgen receptor directly.

[6] = tested on: prostate tissue of BPH induced animal model; experiment: Histological analysis of prostate tissue of BPH induced mouse model (H&E, Masson's trichrome); format: in vivo, C57BL/6 mice; details: PEP1 250 μg per 25 g mouse s.c. every day, 2 weeks
Description: The experiment used 6-8 weeks old male C57BL/6 (n=10/group) mice and the mice were raised in the SPF (specific pathogen free) area of experimental animal laboratory in Medical College of Seoul University. Testosterone enanthate (TE, purchased from EVER Pharma Hena GmbH, Germany) for injection 50 mg and estradiol valerate (purchased from EVER Pharma Hena GmbH, Germany) 0.5 mg are respectively mixed into 70 μl volume of micro-osmotic pump (Alzet pump, purchased from DURECT Corporation, USA), and the pump was transplanted in the back of mouse under anesthetic. The pump was designed to release the hormone in the concentration of 0.11 μl per an hour in 28 days (2 weeks) into the mouse by using osmosis phenomenon. As test materials, testosterone and finasteride were used. For prepared animal models, per one subject (25 g mouse model) 250 μg of PEP1 according to example 1 and 2500 μg of finasteride (in DMSO or cyclodextrin, purchased from Sigma Aldrich, USA) were administered subcutaneously (injection) respectively every day. After 2 weeks from injecting test materials (4 weeks after transplanting the pump to animal model), the blood was collected from supraorbital vein and centrifuged in 14000 rpm, 4° C., 30 min to separate blood serum, and the prostate was extracted and froze in liquid nitrogen at −70° C. or fixed in a fixing fluid. […]

[7] = tested on: BPH induced animal model (sulpiride); experiment: Organ weights in sulpiride BPH induced animal model; format: in vivo, Sprague-Dawley male rats
[8] = tested on: RWPE-1 (prostate epithelium cell line); experiment: DHT-induced proliferation of prostate epithelium cell line (CCK-8); format: cell-based; details: PEP1 100 and 200 μM vs no PEP1
Description: (§6) Testosterone changes into DHT by 5α-reductase when it is injected to the body and it induces proliferation of prostate cells to cause BPH. Based on this, the experiment has been done to observe the effect on proliferation of prostate cell line by using administration of PEP1 according to example 1. As the cell lines, the WPMY-1 (prostate stromal cell line) and the RWPE-1 (prostate epithelium cell line) from animal models are used. For the experiment, WPMY-1 (2.5×10^3 cells) and RWPE-1 (1×10^4 cells) were seeded to 96 well which has separated experimental groups like Table 4 to observe the proliferation change. The proliferation change was observed by putting CCK-8 solution into each well of the media per 10 μL after suctioning the culture media, and measuring optical density for 1-4 hour at 450 nm wavelength.

[9] = tested on: WPMY-1 (prostate stromal cell line); experiment: DHT-induced proliferation of prostate stromal cell line (CCK-8); format: cell-based; details: PEP1 100 and 200 μM vs no PEP1
Description: as §6

[10] = target: T1, androgen receptor; experiment: Binding ability to androgen receptor, PEP1-FITC competitive test by flow-cytometry in WPMY-1
Description: as §4, §5

[11] = PEP1 250 μg per 25 g mouse s.c. every day, 2 weeks
[12] = Sulpiride 40 mg/kg 60 days + PEP1 0.01 mg/kg s.c., rat
[13] = Sulpiride 40 mg/kg 60 days + PEP1 0.1 mg/kg s.c., rat
[14] = Sulpiride 40 mg/kg 60 days + PEP1 1 mg/kg s.c., rat
[15] = Sulpiride 40 mg/kg 60 days + PEP1 10 mg/kg s.c., rat

CC[C@H](C)[C@H](NC(=O)[C@H](Cc1ccccc1)NC(=O)[C@H](CCCNC(=N)N)NC(=O)[C@H](CC(C)C)NC(=O)[C@H](CCCNC(=N)N)NC(=O)[C@H](CO)NC(=O)[C@@H](NC(=O)[C@H](CC(C)C)NC(=O)[C@H](CC(C)C)NC(=O)[C@H](C)NC(=O)[C@@H]1CCCN1C(=O)[C@H](CCCNC(=N)N)NC(=O)[C@H](C)NC(=O)[C@@H](N)CCC(=O)O)[C@@H](C)O)C(=O)N1CCC[C@H]1C(=O)N[C@@H](CCCCN)C(=O)O [PEP1, EARPALLTSRLRFIPK]
Expression of Ki67 in prostate tissue [1]: decreased
Expression of PCNA in prostate tissue [2]: decreased
Prostate weight compared with hormone treated group [3, 11]: significantly decreased
Seminal vesicle weight compared with hormone treated group [3, 11]: less than that of the hormone treated group
Decrease of prostate weight compared with finasteride group ([3]; PEP1 250 μg vs finasteride 2500 μg per 25 g mouse s.c. every day): comparable to the result of the group of administering finasteride
Inhibitory effect on 5α-reductase expression compared with finasteride ([4]; high-dose PEP1 group (GV 10, 10 mg), sulpiride): higher than the group of finasteride administration
Level of 5α-reductase expression in ventral prostate (RT-PCR) ([4]; sulpiride + PEP1 0.01-10 mg/kg s.c., dose-dependent): inhibited
Binding to androgen receptor (fluorescence of PEP1-FITC conjugate) ([5]; RWPE-1, competing with anti-androgen receptor antibody, fluorescence decreased): bound weakly to anti-androgen receptor
Binding to androgen receptor (fluorescence of PEP1-FITC conjugate) ([5]; RWPE-1, competing with anti-androgen receptor isotype control antibody, fluorescence increased): bound to anti-androgen receptor
Arrangement of the epithelial layer of prostate [6]: arranged in regular order like that of control group
Thickness of the epithelium of prostate [6]: less thick than that of the BPH induced group
Prostate index [7, 12]: 0.208
Weight of prostate [7, 12]: 1.13 ± 0.07 g
Weight of seminal vesicle [7, 12]: 0.97 ± 0.07 g
Prostate index [7, 13]: 0.265
Weight of prostate [7, 13]: 1.32 ± 0.05 g
Weight of seminal vesicle [7, 13]: 1.03 ± 0.12 g
Prostate index [7, 14]: 0.198
Weight of prostate [7, 14]: 0.94 ± 0.08 g
Weight of seminal vesicle [7, 14]: 0.81 ± 0.04 g
Prostate index [7, 15]: 0.132
Weight of prostate [7, 15]: 0.57 ± 0.05 g
Weight of seminal vesicle [7, 15]: 0.41 ± 0.03 g
Weight of prostate (significance, P under 0.05) ([7]; co-administration of sulpiride and PEP1, rat): significantly decreased
Weight of seminal vesicle (significance, P under 0.05) ([7]; high-dose PEP1 10 mg/kg + sulpiride, rat): significantly decreased
Proliferation change (CCK-8, optical density 450 nm) ([8]; RWPE-1, DHT 25 μM treated): significant inhibition effect to proliferation
Proliferation change (CCK-8, optical density 450 nm) ([8]; RWPE-1, DHT non-treated): not significant differences
Proliferation change (CCK-8, optical density 450 nm) ([9]; WPMY-1, DHT 25 μM treated): significant inhibition effect to proliferation
Proliferation change (CCK-8, optical density 450 nm) ([9]; WPMY-1, DHT non-treated): not significant differences
Binding to androgen receptor (fluorescence of PEP1-FITC conjugate) ([10]; WPMY-1, competing with anti-androgen receptor antibody, fluorescence decreased): bound weakly to anti-androgen receptor
Binding to androgen receptor (fluorescence of PEP1-FITC conjugate) ([10]; WPMY-1, competing with anti-androgen receptor isotype control antibody, fluorescence increased): bound to anti-androgen receptor
